Here are results for 1 substance from publication PMC4042574, “Phenolic Lipids Affect the Activity and Conformation of Acetylcholinesterase from Electrophorus electricus (Electric eel)” (Nutrients, 2014).

Protein sequences, listed by entry. Tags and fused reporters are not part of them. Residues count along the entry.
UniProt O42275, 24-633: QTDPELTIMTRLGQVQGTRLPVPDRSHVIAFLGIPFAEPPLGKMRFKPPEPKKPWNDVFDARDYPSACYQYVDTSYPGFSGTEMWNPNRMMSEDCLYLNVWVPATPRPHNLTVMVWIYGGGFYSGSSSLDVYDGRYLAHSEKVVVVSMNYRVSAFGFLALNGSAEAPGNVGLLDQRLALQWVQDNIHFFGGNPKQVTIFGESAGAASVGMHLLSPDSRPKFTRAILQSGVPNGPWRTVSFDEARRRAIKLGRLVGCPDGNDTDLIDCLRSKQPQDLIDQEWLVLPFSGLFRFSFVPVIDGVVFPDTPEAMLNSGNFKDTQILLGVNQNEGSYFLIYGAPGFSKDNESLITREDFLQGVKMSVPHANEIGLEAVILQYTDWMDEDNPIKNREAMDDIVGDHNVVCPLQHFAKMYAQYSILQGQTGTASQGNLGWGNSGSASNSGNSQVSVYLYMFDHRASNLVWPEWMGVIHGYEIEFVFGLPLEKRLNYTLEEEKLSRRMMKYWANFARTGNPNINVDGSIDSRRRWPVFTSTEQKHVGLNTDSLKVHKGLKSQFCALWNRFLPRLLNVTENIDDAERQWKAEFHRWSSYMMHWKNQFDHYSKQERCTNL

This test has as its target acetylcholinesterase (AChE) from Electrophorus electricus (electric eel) (Electrophorus electricus, UniProt O42275). In words: Ellman assay, […] nm. The format is biochemical. To be noted: acetylthiocholine iodide (0.476 μM as printed), pH 8.0, 37 °C, 5 min pre-incubation. For orientation: Ellman's reagent forms a yellow product with free thiols.

With Methylcardol, it took 5 ± 0.41 µM to reach half-maximal inhibition (IC50).
